The record followed here is ChEMBL document CHEMBL6153175, “Discovery of Isobenzofuran-1(3H)-one Derivatives as Selective TREK-1 Inhibitors with In Vitro and In Vivo Neuroprotective Effects” (J Med Chem, 2025).

This assay deals with T1, Potassium channel subfamily K member 2 (Homo sapiens, UniProt O95069).
T1 sequence (O95069 whole entry): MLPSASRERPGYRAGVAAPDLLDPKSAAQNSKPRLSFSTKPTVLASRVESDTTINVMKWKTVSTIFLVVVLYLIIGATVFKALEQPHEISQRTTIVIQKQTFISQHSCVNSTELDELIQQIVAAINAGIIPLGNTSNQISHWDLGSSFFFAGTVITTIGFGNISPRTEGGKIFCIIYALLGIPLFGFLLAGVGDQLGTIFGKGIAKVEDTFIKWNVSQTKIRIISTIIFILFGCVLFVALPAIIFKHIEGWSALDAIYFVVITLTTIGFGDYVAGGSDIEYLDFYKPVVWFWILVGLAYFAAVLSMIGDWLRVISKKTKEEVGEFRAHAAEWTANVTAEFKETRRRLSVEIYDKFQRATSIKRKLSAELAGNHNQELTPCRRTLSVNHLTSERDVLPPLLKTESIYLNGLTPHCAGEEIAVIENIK
The assay is described as follows: Inhibition of human TREK1 channel expressed in HEK293 cells cotransfected with EYFP at -80 mV holding potential by whole-cell patch clamp assay. The format is cell-based.

The compound `OCCN1CCN(CC/C=C2/c3ccccc3Sc3ccc(C(F)(F)F)cc32)CC1` [Z-FLUPENTIXOL] gave an IC50 of 1800 nM.

The term IC50 denotes the midpoint of a concentration-inhibition curve. Higher therefore signals lower potency.
